Experimental data reported in ChEMBL document CHEMBL1148491, “Synthesis and pharmacological characterization of nicotinic acetylcholine receptor properties of (+)- and (-)-pyrido-[3,4-b]homotropanes” (J Med Chem, 2006).

Test system: Rattus norvegicus
Assay: Agonist activity on nicotine discrimination in rat at 0.4 mg/kg by lever press assay
Format: functional

CN1CCC[C@H]1c1cccnc1 [NICOTINE]
Activity: 98.3%
